Source: ChEMBL document CHEMBL1799913, “A combined spectroscopic and crystallographic approach to probing drug-human serum albumin interactions” (Bioorg Med Chem, 2010)

The chains behind the UniProt entries cited, without tags or fusion partners.
UniProt P02768, whole entry: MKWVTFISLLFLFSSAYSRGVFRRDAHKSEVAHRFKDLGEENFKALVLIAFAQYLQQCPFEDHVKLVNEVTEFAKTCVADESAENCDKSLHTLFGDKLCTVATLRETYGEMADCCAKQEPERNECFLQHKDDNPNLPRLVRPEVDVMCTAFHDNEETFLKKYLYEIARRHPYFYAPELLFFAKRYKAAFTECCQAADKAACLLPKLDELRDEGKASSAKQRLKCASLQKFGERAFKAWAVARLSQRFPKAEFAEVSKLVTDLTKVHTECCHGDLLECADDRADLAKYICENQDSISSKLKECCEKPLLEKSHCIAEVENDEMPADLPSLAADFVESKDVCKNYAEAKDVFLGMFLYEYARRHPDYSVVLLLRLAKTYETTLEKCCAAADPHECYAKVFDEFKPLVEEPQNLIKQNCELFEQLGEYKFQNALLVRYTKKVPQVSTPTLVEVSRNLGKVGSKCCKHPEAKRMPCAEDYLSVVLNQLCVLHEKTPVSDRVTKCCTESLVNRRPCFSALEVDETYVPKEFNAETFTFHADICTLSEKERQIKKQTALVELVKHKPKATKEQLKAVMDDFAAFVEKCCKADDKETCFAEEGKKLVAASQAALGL

Molecular target: Albumin (Homo sapiens, UniProt P02768)
Assay: Binding affinity to human serum albumin by equilibrium dialysis
Assay type: ADME
Details: isolated protein

log Ks: 4.09
Structure (SMILES): O=C1NC(=O)C(c2ccccc2)(c2ccccc2)N1 [PHENYTOIN]
